What was measured:
[1] = test system: spontaneously converted astrocytes collected from the cortex of a newborn rat; assay: Cytotoxicity on the spontaneously converted astrocytes (qualitative assay, microscopic observation); assay type: cell-based; details: microscopic observation each day for four days, 50 μM to 400 nM
Excerpt: a) Spontaneously converted astrocytes collected from the cortex of a newborn rat (see Bochelen D., Langley K., Adamczyk M., Kupfberg, Hor F., Vincendon G., Mersel M., J. Neurosci. Res., 2000, 62, 99-111), that is to say from normal glial cells maintained in culture and that became able to divide to infinity. These cells are not able to induce tumors after implantation in the rat but did avoid the cell cycle regulation. This cell line was maintained in culture in culture flasks in the presence of 5 mL of culture medium MH5 comprising 70% of MEM and 30% of a Hanks solution. This medium was supplemented with 5% of foetal calf serum. The culture medium was changed every three days. Cells were incubated at 37° C. in an air/CO2 atmosphere (95/5). For the experiments, a replanting was effected after removal of the culture medium, cells were treated for 4 to 5 minutes with trypsine (0.1%). The cell suspension was then placed in 5 mL of fresh medium, 50 μL of this solution were collected to perform the cell counting. Once the expected dilution had been obtained, the 96-well culture plates were seeded, the culture volume being 200 μL.
These assays conducted on compounds 3.28, 3.8, 3.5. […] The effect was evaluated by simple microscopic observation of the culture plates. This evaluation consisted in observing each day and for four days, at concentrations ranging from 50 μM to 400 nM. The evaluated compounds did present an activity at a very low concentration. An activity could be observed after 72 h to 96 h (days 3 and 4) for the whole evaluated compounds.

[2] = test system: astrocyte primary cultures from the cortex of a newborn rat; assay: Cytotoxicity on the non modified astrocytes, so called healthy cells (quantitative assay); details: second day after addition, 50 μM to 24 nM

Substance	cytotoxic activity on spontaneously converted astrocytes [1]	cytotoxicity on healthy cells (cell viability) [2]
4-(2,2-Dimethyl-[1,3]dioxolan-4-yl)-2,2-dimethyl-2-oxo-2-phenyl-tetrahydro-6λ*5*-[1,3]dioxolo[4,5-d][1,2]oxaphosphinin-3-tosyl [Compound 3.5]	cytotoxic activity	–
6-(1,2-dihydroxy-ethyl)-2,2-dimethyl-2-oxo-2-diethoxymethyl-tetrahydro-6λ*5*-[1,3]dioxolo[4,5-d][1,2]oxaphosphinan-3-tosyl [Compound 3.6]	cytotoxic activity	absence of cytotoxicity
4-(2,2-Dimethyl-[1,3]dioxolan-4-yl)-2,2-dimethyl-2-oxo-2-phenyl-tetrahydro-6λ*5*-[1,3]dioxolo[4,5-d][1,2]oxaphosphinin-3-mesyl [Compound 3.8]	cytotoxic activity	–
6-(1,2-dihydroxy-ethyl)-2-oxo-2-phenyl-2λ*5*-[1,2]oxaphosphinane-4,5-diol-3-tosyl [Compound 3.7]	cytotoxic activity	–

— patent US8383609B2, “Phosphorus containing heterocyclic compounds, sugar analogues, and compositions having anti-cancer activity containing the same” (Centre National de la Recherche Scientifique, priority 2007, dated 2013)
